Test results taken from patent publication US10548861B2 (Academia Sinica, priority 2015, dated 2020).

Test system: primary B-ALL vs normal human tissues
Test: Therapeutic window vs five normal tissues
Assay type: cell-based

Substance: 4-Hydroperoxycyclophosphamide
- Therapeutic window (B-ALL (reference)): 1.00
- Therapeutic window (CD34+ relative to B-ALL): 0.40
